# How the values were obtained:
# The chains behind the UniProt entries cited, without tags or fusion partners. Where a name states a change or a piece, a line headed by the entry shows the natural chain unless it says otherwise.
# UniProt P23458: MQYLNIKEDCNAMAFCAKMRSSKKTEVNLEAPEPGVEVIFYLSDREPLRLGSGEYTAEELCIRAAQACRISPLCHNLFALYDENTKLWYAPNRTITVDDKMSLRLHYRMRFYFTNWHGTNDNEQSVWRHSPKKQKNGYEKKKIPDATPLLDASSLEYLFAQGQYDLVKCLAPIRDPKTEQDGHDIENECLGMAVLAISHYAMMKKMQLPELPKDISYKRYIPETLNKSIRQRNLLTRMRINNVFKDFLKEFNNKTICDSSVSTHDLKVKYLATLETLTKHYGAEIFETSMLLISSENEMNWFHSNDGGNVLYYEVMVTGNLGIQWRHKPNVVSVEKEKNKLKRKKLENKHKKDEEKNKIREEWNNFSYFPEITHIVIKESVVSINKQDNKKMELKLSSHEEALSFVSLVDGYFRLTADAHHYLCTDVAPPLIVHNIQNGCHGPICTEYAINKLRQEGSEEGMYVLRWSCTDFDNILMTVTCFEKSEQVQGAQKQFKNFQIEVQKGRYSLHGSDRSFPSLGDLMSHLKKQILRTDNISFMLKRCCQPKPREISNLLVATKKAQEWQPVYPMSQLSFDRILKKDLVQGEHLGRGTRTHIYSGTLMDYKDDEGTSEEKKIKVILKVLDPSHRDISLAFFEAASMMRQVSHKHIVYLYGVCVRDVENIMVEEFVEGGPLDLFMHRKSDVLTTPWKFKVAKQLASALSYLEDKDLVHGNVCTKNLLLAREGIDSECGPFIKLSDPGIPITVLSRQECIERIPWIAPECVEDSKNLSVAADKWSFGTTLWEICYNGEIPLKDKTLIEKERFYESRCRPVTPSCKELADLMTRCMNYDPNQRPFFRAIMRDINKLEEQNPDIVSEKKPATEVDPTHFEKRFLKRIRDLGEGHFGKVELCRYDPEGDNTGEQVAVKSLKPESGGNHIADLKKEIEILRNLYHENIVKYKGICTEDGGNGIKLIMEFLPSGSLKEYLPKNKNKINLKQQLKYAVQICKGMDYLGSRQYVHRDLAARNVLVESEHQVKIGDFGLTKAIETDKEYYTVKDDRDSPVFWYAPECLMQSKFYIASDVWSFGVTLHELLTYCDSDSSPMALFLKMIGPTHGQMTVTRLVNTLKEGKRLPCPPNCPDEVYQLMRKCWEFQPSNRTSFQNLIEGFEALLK
# UniProt P29597: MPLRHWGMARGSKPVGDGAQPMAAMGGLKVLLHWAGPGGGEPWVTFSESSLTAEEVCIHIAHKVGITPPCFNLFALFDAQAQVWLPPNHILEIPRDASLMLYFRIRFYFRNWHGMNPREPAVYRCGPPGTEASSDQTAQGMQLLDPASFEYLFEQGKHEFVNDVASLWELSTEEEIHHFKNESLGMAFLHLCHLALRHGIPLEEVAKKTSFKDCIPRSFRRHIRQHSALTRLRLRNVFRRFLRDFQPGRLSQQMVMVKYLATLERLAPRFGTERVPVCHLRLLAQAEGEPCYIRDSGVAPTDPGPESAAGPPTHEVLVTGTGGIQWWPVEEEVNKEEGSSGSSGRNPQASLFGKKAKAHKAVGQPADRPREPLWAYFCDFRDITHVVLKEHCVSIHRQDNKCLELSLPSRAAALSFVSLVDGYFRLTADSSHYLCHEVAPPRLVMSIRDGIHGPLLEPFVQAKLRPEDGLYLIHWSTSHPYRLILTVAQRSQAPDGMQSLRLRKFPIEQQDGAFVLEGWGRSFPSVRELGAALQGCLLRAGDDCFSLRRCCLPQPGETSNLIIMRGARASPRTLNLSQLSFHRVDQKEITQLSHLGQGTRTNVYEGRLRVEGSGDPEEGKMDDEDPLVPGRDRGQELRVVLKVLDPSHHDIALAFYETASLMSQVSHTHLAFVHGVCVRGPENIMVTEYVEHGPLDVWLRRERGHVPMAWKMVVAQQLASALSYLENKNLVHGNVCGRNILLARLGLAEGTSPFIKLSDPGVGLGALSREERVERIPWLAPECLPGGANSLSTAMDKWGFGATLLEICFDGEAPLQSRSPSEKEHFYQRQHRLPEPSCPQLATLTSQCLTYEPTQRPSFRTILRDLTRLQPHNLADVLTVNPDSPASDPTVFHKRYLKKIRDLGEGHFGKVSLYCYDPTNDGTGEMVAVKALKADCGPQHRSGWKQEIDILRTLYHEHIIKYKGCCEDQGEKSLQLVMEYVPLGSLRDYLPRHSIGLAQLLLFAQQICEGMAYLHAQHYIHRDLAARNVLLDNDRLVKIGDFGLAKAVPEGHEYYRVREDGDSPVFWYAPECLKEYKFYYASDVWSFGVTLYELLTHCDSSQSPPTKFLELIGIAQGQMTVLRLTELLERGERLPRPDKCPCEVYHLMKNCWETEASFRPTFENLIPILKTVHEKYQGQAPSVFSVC
# UniProt P52333: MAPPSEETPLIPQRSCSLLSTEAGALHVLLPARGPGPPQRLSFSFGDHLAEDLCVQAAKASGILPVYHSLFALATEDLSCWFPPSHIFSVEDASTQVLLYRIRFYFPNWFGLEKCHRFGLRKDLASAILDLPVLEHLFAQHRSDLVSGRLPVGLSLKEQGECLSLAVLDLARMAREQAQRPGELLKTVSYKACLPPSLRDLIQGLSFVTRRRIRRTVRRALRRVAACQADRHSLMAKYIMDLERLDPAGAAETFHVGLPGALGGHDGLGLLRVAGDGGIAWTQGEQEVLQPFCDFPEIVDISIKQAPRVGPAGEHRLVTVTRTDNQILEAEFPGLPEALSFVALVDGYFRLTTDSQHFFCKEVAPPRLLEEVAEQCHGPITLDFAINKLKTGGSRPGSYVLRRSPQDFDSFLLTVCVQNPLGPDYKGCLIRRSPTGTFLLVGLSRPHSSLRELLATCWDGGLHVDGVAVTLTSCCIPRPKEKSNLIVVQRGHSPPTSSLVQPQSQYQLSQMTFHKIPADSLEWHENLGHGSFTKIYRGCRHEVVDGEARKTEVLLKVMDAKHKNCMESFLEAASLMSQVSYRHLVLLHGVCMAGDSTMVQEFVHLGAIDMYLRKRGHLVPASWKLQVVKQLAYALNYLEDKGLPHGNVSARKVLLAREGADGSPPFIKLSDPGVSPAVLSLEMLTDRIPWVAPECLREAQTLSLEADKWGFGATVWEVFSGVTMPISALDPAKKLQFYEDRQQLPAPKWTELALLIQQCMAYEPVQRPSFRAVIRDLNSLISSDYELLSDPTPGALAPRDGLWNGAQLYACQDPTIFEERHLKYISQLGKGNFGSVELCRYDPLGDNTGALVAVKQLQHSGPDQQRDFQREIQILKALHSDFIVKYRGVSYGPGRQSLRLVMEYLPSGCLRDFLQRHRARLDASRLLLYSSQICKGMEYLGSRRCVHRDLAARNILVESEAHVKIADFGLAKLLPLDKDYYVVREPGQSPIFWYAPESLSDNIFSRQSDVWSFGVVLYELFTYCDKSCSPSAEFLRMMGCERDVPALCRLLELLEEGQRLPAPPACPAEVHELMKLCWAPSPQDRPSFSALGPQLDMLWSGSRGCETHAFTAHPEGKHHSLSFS
# Type in all cases: biochemical
# [1] = molecular target: T1, JAK1 (Homo sapiens (Human), UniProt P23458); experiment: Enzyme assay, JAK1 (Assay Example^b 1); conditions: ATP 100 μM
# [2] = molecular target: T2, Tyk2 (Homo sapiens (Human), UniProt P29597); experiment: Enzyme assay, Tyk2 (Assay Example^b 1); conditions: ATP 100 μM
# [3] = molecular target: JAK3 (Homo sapiens (Human), UniProt P52333); experiment: Enzyme assay (LANCE Ultra ULight-JAK1 Peptide), JAK3
# [4] = molecular target: T1, JAK1; experiment: Enzyme assay (LANCE Ultra ULight-JAK1 Peptide), JAK1; conditions: ATP 100 μM
# [5] = molecular target: T2, Tyk2; experiment: Enzyme assay (LANCE Ultra ULight-JAK1 Peptide), Tyk2; conditions: ATP 100 μM
SMILES,IC50 [1] [µM],IC50 [2] [µM],IC50 [3] [µM],IC50 [4] [µM],IC50 [5] [µM]
"C[C@@H]1CCN(Cc2cccc(F)c2F)C[C@@H]1n1ccc(=O)c2cnc3[nH]ccc3c21 (racemic) [Synthetic Example^b 6a, rac-1-[(3R,4R)-1-(2,3-Difluorobenzyl)-4-methylpiperidin-3-yl]-1H-pyrrolo[2,3-h][1,6]naphthyridin-4(7H)-one]",0.027,0.63,,,
"C[C@@H]1CCN(C)C[C@@H]1n1ccc(=O)c2cnc3[nH]ccc3c21 (racemic) [Synthetic Example^b 6b, rac-1-[(3R,4R)-1,4-Dimethylpiperidin-3-yl]-1H-pyrrolo[2,3-h][1,6]naphthyridin-4(7H)-one]",0.19,,,,
N#Cc1ccc(CN2CCC(c3nnn4cnc5[nH]ccc5c34)CC2)cc1 [Ex 210],,,0.077,0.0047,0.29
